From patent US11292791B2 (priority 2017, dated 2022)

Molecular target: BRD4 (Homo sapiens (Human), UniProt O60885)
Experiment: biochemical
Conditions: BRD4 IC50 (μM gmean)

Row | Compound | IC50 [µM]
1 | COC(=O)N1c2ccc3c(nc(Cc4ccc(Cl)c(OC)n4)n3[C@H]3CC[C@H](C(=O)O)CC3)c2CC[C@@H]1C [Example 518] | 0.1 to 1
2 | COC(=O)N1c2ccc3c(nc(C(NC(C)=O)c4ccccc4)n3C3CCCC(C(=O)O)C3)c2CC[C@@H]1C (some centres unmarked) [Example 439] | 0.1 to 1
3 | COC(=O)N1c2ccc3c(nc(Cc4ccccc4)n3[C@H]3CC[C@@H](C(=O)O)C(C)(C)C3)c2CC[C@@H]1C [Example 48, (1R,4S)-4-[(7S)-2-benzyl-6-(methoxycarbonyl)-7-methyl-3H,6H,7H,8H,9H-imidazo[4,5-f]quinolin-3-yl]-2,2-dimethylcyclohexane-1-carboxylic acid] | 1 to 1000
4 | COC(=O)N1c2ccc3c(nc(Cc4cncc(OC5CC5)n4)n3[C@@H]3CCC[C@@H](C(=O)O)C3)c2CC[C@@H]1C [Example 716] | 0.1 to 1
5 | COC(=O)N1c2ccc3c(nc(C(O)c4ccc5ocnc5c4)n3C3CCCC(C(=O)O)C3)c2CC[C@@H]1C (some centres unmarked) [Example 458] | 0.1 to 1
6 | COC(=O)N1c2ccc3c(nc(Nc4ccc(OC)nc4)n3[C@@H]3CCC[C@@H](C(=O)O)C3)c2CC[C@@H]1C [Example 850] | 0.1 to 1
7 | COC(=O)N1c2ccc3c(nc([C@H](C)Oc4ccccc4)n3[C@H]3CC[C@H](C(=O)O)CC3)c2CC[C@@H]1C [Example 605] | 0.1 to 1
8 | COC(=O)N1c2ccc3c(nc(Cn4ccc5nccnc54)n3[C@@H]3CCC[C@@H](C(=O)O)C3)c2CC[C@@H]1C [Example 579] | 0.1 to 1
9 | COC(=O)N1c2ccc3c(nc(CN4c5ccccc5CS4(=O)=O)n3[C@@H]3CCC[C@@H](C(=O)O)C3)c2CC[C@@H]1C [Example 739] | 0.1 to 1
10 | COC(=O)N1c2ccc3c(nc(Nc4ccc5c(C)n[nH]c5c4)n3[C@H]3CC[C@H](C(=O)O)CC3)c2CC[C@@H]1C [Example 861] | 0.1 to 1
11 | COC(=O)N1c2ccc3c(nc(OCCc4ccccc4)n3[C@@H]3CCC[C@@H](C(=O)O)C3)c2CC[C@@H]1C [Example 873] | 0.1 to 1
12 | COC(=O)N1c2ccc3c(nc(Nc4cccc(Cl)c4)n3[C@@H]3CCC[C@@H](C(=O)O)C3)c2CC[C@@H]1C [Example 788] | 0.1 to 1
13 | COC(=O)N1c2ccc3c(nc(N(C)c4cccc(OC)c4)n3[C@@H]3CCC[C@@H](C(=O)O)C3)c2CC[C@@H]1C [Example 535] | 0.1 to 1
14 | COC(=O)N1c2ccc3c(nc(C(O)c4cc(Cl)ccc4OC)n3C3CCCC(C(=O)O)C3)c2CC[C@@H]1C (some centres unmarked) [Example 442] | 0.1 to 1
15 | COC(=O)N1c2ccc3c(nc(C(O)c4ccc(OC)c(Cl)c4)n3C3CCCC(C(=O)O)C3)c2CC[C@@H]1C (some centres unmarked) [Example 416] | 0.1 to 1
16 | COC(=O)N1c2ccc3c(nc(C(O)c4cc(F)ccc4OC4CC4)n3C3CCCC(C(=O)O)C3)c2CC[C@@H]1C (some centres unmarked) [Example 482] | 0.1 to 1
17 | COC(=O)N1c2ccc3c(nc(Nc4ccccc4OC)n3[C@H]3CC[C@H](C(=O)O)CC3)c2CC[C@@H]1C [Example 854] | 0.1 to 1
18 | COC(=O)N1c2ccc3c(nc(Cn4ccc5ccc(C#N)nc54)n3[C@@H]3CCC[C@@H](C(=O)O)C3)c2CC[C@@H]1C [Example 476] | 0.1 to 1
19 | COC(=O)N1c2ccc3c(nc(C(O)c4ccc5oc(C)nc5c4)n3C3CCCC(C(=O)O)C3)c2CC[C@@H]1C (some centres unmarked) [Example 451] | 0.1 to 1
20 | COC(=O)N1c2ccc3c(nc(N(C)c4ccccc4)n3[C@H]3CC[C@H](C(=O)O)CC3)c2CC[C@@H]1C [Example 694] | 0.1 to 1
21 | COC(=O)N1c2ccc3c(nc(CCN4CCCCC4=O)n3[C@@H]3CCC[C@@H](C(=O)O)C3)c2CC[C@@H]1C [Example 890] | 0.1 to 1

Row | Compound | IC50 [µM]
22 | COC(=O)N1c2ccc3c(nc(N(C)c4cccc(Cl)c4)n3[C@H]3CC[C@H](C(=O)O)CC3)c2CC[C@@H]1C [Example 573] | 0.1 to 1
23 | COC(=O)N1c2ccc3c(nc(C(C)n4c(O)cc5ccccc54)n3C3CCCC(C(=O)O)C3)c2CC[C@@H]1C (some centres unmarked) [Example 666] | 0.1 to 1
24 | COC(=O)N1c2ccc3c(nc(Nc4ccc5cn[nH]c5c4)n3[C@H]3CC[C@H](C(=O)O)CC3)c2CC[C@@H]1C [Example 853] | 0.1 to 1
25 | COC(=O)N1c2ccc3c(nc(C(O)c4c(OC)ccc(F)c4OC)n3C3CCCC(C(=O)O)C3)c2CC[C@@H]1C (some centres unmarked) [Example 464] | 0.1 to 1
26 | COC(=O)N1c2ccc3c(nc(C(O)c4cccc(Cl)c4)n3C3CCCC(C(=O)O)C3)c2CC[C@@H]1C (some centres unmarked) [Example 423] | 0.1 to 1
27 | COC(=O)N1c2ccc3c(nc(Cc4ccc5c(ccn5C)c4)n3[C@H]3CC[C@H](C(=O)O)CC3)c2CC[C@@H]1C [Example 507] | 0.1 to 1
28 | COC(=O)N1c2ccc3c(nc(Nc4cccc(OC)c4)n3[C@@H]3CCC[C@@H](C(=O)O)C3)c2CC[C@@H]1C [Example 719] | 0.1 to 1
29 | COC(=O)N1c2ccc3c(nc(C(C)Cn4cc(Cl)cn4)n3C3CCNC3)c2CC[C@@H]1C (some centres unmarked) [Example 520] | 0.1 to 1
30 | COC(=O)N1c2ccc3c(nc(C(O)c4ccc5[nH]ccc5c4)n3C3CCCC(C(=O)O)C3)c2CC[C@@H]1C (some centres unmarked) [Example 606] | 0.01 to 0.1
31 | COC(=O)N1c2ccc3c(nc([C@@H](O)c4cc(F)cc5cn[nH]c45)n3C3CCC[C@@H](C(=O)O)C3)c2CC[C@@H]1C (some centres unmarked) [Example 429] | 0.1 to 1
32 | COC(=O)N1c2ccc3c(nc(C4(c5cncc(C6CC6)n5)CC4)n3[C@@H]3CCC[C@@H](C(=O)O)C3)c2CC[C@@H]1C [Example 530] | 0.1 to 1
33 | COC(=O)N1c2ccc3c(nc(C4(c5ccc(OC(F)F)nc5)CC4)n3[C@@H]3CCC[C@@H](C(=O)O)C3)c2CC[C@@H]1C [Example 484] | 0.1 to 1
34 | COC(=O)N1c2ccc3c(nc(Nc4ccc(F)c(OC)c4)n3[C@@H]3CCC[C@@H](C(=O)O)C3)c2CC[C@@H]1C [Example 799] | 0.1 to 1
35 | COC(=O)N1c2ccc3c(nc(N(C)S(=O)(=O)c4ccccc4)n3[C@@H]3CCC[C@@H](C(=O)O)C3)c2CC[C@@H]1C [Example 670] | 0.1 to 1
36 | COC(=O)N1c2ccc3c(nc(C(C)OC4CCCCC4)n3C3CCCC(C(=O)O)C3)c2CC[C@@H]1C (some centres unmarked) [Example 486] | 0.1 to 1
37 | COC(=O)N1c2ccc3c(nc(Cc4cc5ccccc5[nH]4)n3[C@H]3CC[C@H](C(=O)O)CC3)c2CC[C@@H]1C [Example 600] | 0.1 to 1
38 | COC(=O)N1c2ccc3c(nc(C(O)c4cc(F)cc(F)c4)n3C3CCCC(C(=O)O)C3)c2CC[C@@H]1C (some centres unmarked) [Example 488] | 0.1 to 1
39 | COC(=O)N1c2ccc3c(nc(C(O)c4cccc(OC)c4)n3C3CCCC(C(=O)O)C3)c2CC[C@@H]1C (some centres unmarked) [Example 472] | 0.1 to 1
40 | COC(=O)N1c2ccc3c(nc(CCC4CCC4)n3[C@@H]3CCC[C@@H](C(=O)O)C3)c2CC[C@@H]1C [Example 570] | 0.1 to 1
41 | COC(=O)N1c2ccc3c(nc(Nc4ccc(F)c(F)c4)n3[C@H]3CC[C@H](C(=O)O)CC3)c2CC[C@@H]1C [Example 881] | 0.1 to 1
42 | COC(=O)N1c2ccc3c(nc(Cc4ccc5[nH]ccc5c4)n3[C@H]3CC[C@H](C(=O)O)CC3)c2CC[C@@H]1C [Example 494] | 0.1 to 1

Row | Compound | IC50 [µM]
43 | COC(=O)N1c2ccc3c(nc(C(C)(O)Cc4ccccc4)n3C3CCCC(C(=O)O)C3)c2CC[C@@H]1C (some centres unmarked) [Example 453] | 0.01 to 0.1
44 | COC(=O)N1c2ccc3c(nc(N(C)c4cccc(Cl)c4)n3[C@@H]3CCC[C@@H](C(=O)O)C3)c2CC[C@@H]1C [Example 498] | 0.1 to 1
45 | COC(=O)N1c2ccc3c(nc(Nc4ccc(Cl)cc4)n3[C@H]3CC[C@H](C(=O)O)CC3)c2CC[C@@H]1C [Example 865] | 0.1 to 1
46 | COC(=O)N1c2ccc3c(nc(CCC4CCCCO4)n3C3CCCC(C(=O)O)C3)c2CC[C@@H]1C (some centres unmarked) [Example 667] | 0.1 to 1
47 | COC(=O)N1c2ccc3c(nc(CC(O)c4ccccc4)n3C3CCCC(C(=O)O)C3)c2CC[C@@H]1C (some centres unmarked) [Example 548] | 0.1 to 1
48 | COC(=O)N1c2ccc3c(nc(Cc4cnn(C5CC5)c4)n3[C@@H]3CCC[C@@H](C(=O)O)C3)c2CC[C@@H]1C [Example 672] | 0.1 to 1
49 | COC(=O)N1c2ccc3c(nc(C(=O)c4ccccc4)n3[C@@H]3CCC[C@@H](C(=O)O)C3)c2CC[C@@H]1C [Example 874] | 0.1 to 1
50 | COC(=O)N1c2ccc3c(nc(C(O)c4cc(F)cc5cc[nH]c45)n3C3CCCC(C(=O)O)C3)c2CC[C@@H]1C (some centres unmarked) [Example 434] | 0.1 to 1
51 | COC(=O)N1c2ccc3c(nc(CCn4cccn4)n3CCNCc3ccn(C)n3)c2CC[C@@H]1C [Example 290, methyl (S)-2-(2-(1H-pyrazol-1-yl)ethyl)-7-methyl-3-(2-(((1-methyl-1H-pyrazol-3-yl)methyl)amino)ethyl)-3,7,8,9-tetrahydro-6H-imidazo[4,5-f]quinoline-6-carboxylate] | 1 to 1000
52 | COC(=O)N1c2ccc3c(nc(Nc4ccc(C)cc4)n3[C@@H]3CCC[C@@H](C(=O)O)C3)c2CC[C@@H]1C [Example 809] | 0.1 to 1
53 | COC(=O)N1c2ccc3c(nc(C4(Oc5ccccc5)CC4)n3[C@@H]3CCC[C@@H](C(=O)O)C3)c2CC[C@@H]1C [Example 409] | 0.1 to 1
54 | COC(=O)N1c2ccc3c(nc(Nc4cccc(Cl)c4)n3[C@H]3CC[C@H](C(=O)O)CC3)c2CC[C@@H]1C [Example 815] | 0.1 to 1
55 | COC(=O)N1c2ccc3c(nc([C@@H](O)c4ccc5c(ccn5C)c4)n3[C@@H]3CCC[C@@H](C(=O)O)C3)c2CC[C@@H]1C [Example 467] | 0.1 to 1
56 | COC(=O)N1c2ccc3c(nc(Nc4ccc(C)cc4)n3[C@H]3CC[C@H](C(=O)O)CC3)c2CC[C@@H]1C [Example 838] | 0.1 to 1
57 | COC(=O)N1c2ccc3c(nc(Cc4ccccc4)n3[C@H]3CC[C@@H](C(N)=O)CC3)c2CC[C@@H]1C [Example 75] | 0.1 to 1
58 | COC(=O)N1c2ccc3c(nc(C(C)Oc4ccccc4)n3C3CCC[C@@H](C(=O)O)C3)c2CC[C@@H]1C (some centres unmarked) [Example 411] | 0.1 to 1
59 | COC(=O)N1c2ccc3c(nc(Cc4cncc(OC(C)(C)C)n4)n3[C@@H]3CCC[C@@H](C(=O)O)C3)c2CC[C@@H]1C [Example 586] | 0.1 to 1
60 | COC(=O)N1c2ccc3c(nc(C(O)c4ccc5[nH]ncc5c4)n3C3CCCC(C(=O)O)C3)c2CC[C@@H]1C (some centres unmarked) [Example 480] | 0.1 to 1
61 | COC(=O)N1c2ccc3c(nc(Cc4cncc(OC(C)C)n4)n3[C@@H]3CCC[C@@H](C(=O)O)C3)c2CC[C@@H]1C [Example 693] | 0.1 to 1
62 | COC(=O)N1c2ccc3c(nc(C(C)C(O)c4ccccc4)n3C3CCCC(C(=O)O)C3)c2CC[C@@H]1C (some centres unmarked) [Example 425] | 0.1 to 1
